Test results reported in patent EP4847524A2, “FATTY ACID CONJUGATED CYCLIC PEPTIDES” (dated 2026).

Experiments:
[1] = Peptide pharmacokinetics, dog study (IV and SC)
Description: Pharmacokinetics of the test peptides were evaluated in vivo as described herein. Male Sprague Dawley rats (300-450 g), male Beagle dogs (5-10 kg) and male cynomolgus monkeys (2-4 kg) were used in the pharmacokinetics (PK) study. All animal procedures were approved by the Institutional Animal Care and Use Committee at the Test Facility.
For IV dosing, compounds were administered by intravenous bolus injection into one of the two peripheral tail veins, at either 0.1 mg/kg or 0.3 mg/kg in 0.01 M phosphate (pH 7.4, 1 mg/mL). Following dosing, the catheter was flushed with 3 mL of saline prior to removal. For SC dosing, compounds were administered at the intra-scapular skin, at 0.3 mg/kg or 0.9 mg/kg in 0.01M phosphate (pH 7.4, 5 mg/mL). The SC injection site was prepared by clipping away the hair and cleaning with alcohol. After administration the dose site was marked with indelible ink.
Blood samples were collected into tubes with K2EDTA. Tubes were stored on wet ice until processed to plasma by centrifugation (2,200 x g at nominal 4°C for 10 minutes) within 60 minutes of collection. Plasma samples were transferred into individual uniquely labeled matrix tubes and stored at nominal -80°C until analysis by liquid chromatography tandem-mass spectrometry (LC-MS/MS).
The plasma samples were prepared by solid phase extraction (SPE) using a Waters PRiME HLB Microelution plate. The SPE plate was conditioned using water:methanol (50:50, v/v) and 0.5% tween 80 in water. After pretreated samples were loaded, wells were washed with 5% methanol in water and 0.1% TFA in water:acetonitrile (80:20, v/v). Wells were eluted with 0.1% formic acid, 0.5% 2,2,2-trifluoroethanol in water:acetonitrile (20:80, v/v) followed by a dilution with 0.1% formic acid, 0.1% tween 80 in water for analysis by LC-MS/MS. The analyte and internal standard (IS) were separated by reversed-phase chromatography using a Shimadzu Nexera X2 UHPLC system and Phenomenex bioZen Peptide PS-C18 50x2.1-mm, 3µm column. The analyte and IS were detected using an Applied Biosystems Sciex API 6500 triple quadrupole mass spectrometer. The mass spectrometer was equipped with an electrospray ionization source operated in the positive-ion mode. The analyte and internal standard were monitored in the multiple-reaction-monitoring scan mode.
Noncompartmental pharmacokinetic parameters were calculated using Phoenix® WinNonlin® software (Version 8.3; Linear Up Log Down Interpolation Calculation Method; Certara L.P.).

[2] = Size exclusion chromatography (SEC) for aggregation; conditions: in either 10mM phosphate at pH 7 or 10mM TRIS at pH8
Description: Preliminary screening methods for the evaluation of multiple fatty acid peptide analogs included a two-stage approach. First, formulations were prepared at target concentrations of approximately 10, 20, 40 or 50 mg/mL in 150 mM phosphate, pH 7.5. These formulations were titrated using NaOH, as needed, to the target pH 7.5 and were evaluated (visual assessment only). For visibly insoluble formulations, an additional buffer was added to dissolve the peptide. Once dissolved, all formulations were filtered through a 0.2 µm PVDF filter membrane and analyzed by RP-HPLC for soluble content. Formulations were incubated at 4°C, room temperature, and 37°C. At day 0 and 7 the formulations were analyzed by visual observation for solubility, size exclusion chromatography (SEC) for aggregation, & RP-HPLC for chemical stability studies.
Size exclusion chromatography (SEC) was conducted using an Agilent 1260 Infinity II-UV equipped with a Sepax Zenix-C SEC-300 (3 µm, 300 Å, 4.6 x 300 mm). UV absorption at 220 nm was monitored during the analysis. Formulated samples from day 0 and 7 were used directly for injection with injection volume of 1 µL. Separation was achieved using an isocratic buffer system containing 150 mM sodium phosphate (pH 7.5) at room temperature, with a constant flow rate at 0.35 mL/minute, and a run time of 15 minutes. […]

[3] = test system: adrenocorticotropin hormone (ACTH); test: ACTH reduction in adrenalectomized rats, dose response-repeat dose; conditions: repeat dosing 700nmol/kg (baseline, 48 and 96 hours), 24 hours; mean (SEM); FIG. 12
Excerpt: Male, Sprague Dawley rats (226-250g/ 55-58 days old) underwent adrenalectomy surgery at Charles River Laboratories prior to shipment. Once delivered, postoperative care was provided by facility personnel. Rats (n=9-10 per group) were maintained single-housed with a 12:12 light/dark cycle. To compensate for the removal of adrenal mineralocorticoids and promote weight maintenance, they were supplemented with 0.9% NaCl and 1% sucrose in their drinking water. Additional pellets, medium high fat/sweet (Research Diets) were provided daily on the cage floor in addition to regular rat chow. Rats were allowed to recover and habituate for a week. Cage change occurred at least two days prior to the start of the experiment and again after one week if required for longer experiments. Water changes occurred every 3-4 days after experiments to avoid additional stress.
All experiments were conducted in the morning, to avoid circadian differences in adrenocorticotropic hormone (ACTH). Prior to collection of a whole blood sample via the tail vein, experimental animals were placed in a rat warmer 15-20 minutes prior to the designated time points. The animals were then placed in a rat restrainer and a 24-gauge catheter was placed in the tail vein. The blood (0.15-0.2mL/ sample) was collected into a 600µL Sarstedt tube that contained 1.2-2.0 mg EDTA-K3/mL. […]

IV CL ([1]; IV dose 0.1 mg/kg): 8.6 mL/day/kg
IV Vd ([1]; IV dose 0.1 mg/kg): 0.041 L/kg
IV t1/2 ([1]; IV dose 0.1 mg/kg): 72.2 h
SC AUC ([1]; SC Dose 0.3 mg/kg): 483 µg·h/mL
SC Cmax ([1]; SC Dose 0.3 mg/kg): 3620 ng/mL
SC Tmax ([1]; SC Dose 0.3 mg/kg): 27 h
SC t1/2 ([1]; SC Dose 0.3 mg/kg): 179 h
SC F ([1]; SC Dose 0.3 mg/kg, IV dose 0.1 mg/kg): 80%
aggregation [2]: no aggregation
Substance: Ac-Asp-Leu-Thr-D-Phe-His-Leu-Leu-Arg-Glu-Val-Leu-Glu-Nle-K*-Arg-Glu-Glu-Gln-cVal-Ala-Gln-E#-Ala-Glu-K#-Asn-Arg-Lys-Leu-Nle-Glu-cVal-Ala-CONH2
percentage ACTH reduction versus vehicle (normalized to t=0) [3]: 85.4%
